Reference: US20090208508A1 (SK, published 2009)

Target: beta actin; beta cytoskeletal actin (UniProt P60709 2-375)
Test: co-immunoprecipitation with Flag-UCH-L1 from transfected HEK293T cells, 2D-PAGE, MALDI-TOF MS (spot 9)
Procedure: For the analysis using MALDI-TOF mass spectrometry, the proteins were separated on 2D-PAGE and then stained with coomassie dye. After being identified, the proteins (spots) on gels were excised and stored in eppendorf tubes. The excised gels were homogenized in 30% methanol (1 mL) and then incubated at 37° C. for 5 min. These gels were destained three times with 100 μL of 25 mM ammonium bicarbonate (NH₄HCO₃)/50% acetonitrile solution for 10 min, dehydrated with 100% acetonitrile, and completely dried using Speed Vac vacuum centrifuge. The trypsin (10 μL, 10 ng/mL) solution including 25 mM NH₄HCO₃ was added to the dried gels and reacted with them at room temperature for 5-10 min and successively at 4° C. for 30 min. Next, 20 μL of 25 mM NH₄HCO₃ was added thereto. These gels treated with trypsin and 25 mM NH₄HCO₃ (20 μL) were incubated at 37° C. for 12-16 h additionally. Here, 30 μL of 60% acetonitrile/0.1% TFA (1:1 v/v) solution was added. These gels were incubated at 37° C. for 10 min. […]
To examine the interacting protein profiles of various UCH-L1 isoforms respectively according to oxidative stress, HEK293 cells was treated with H₂O₂. The H₂O₂ treated cell lysates were immunoprecipitated and analyzed by 2D-PAGE (FIG. 8B) and MALDI-TOF MS in comparison with them of the control cells.

- binding result: binds
B1: flag-tagged UCH-L1 (Ubiquitin C-terminal hydrolase-L1) expressed from pFlag-CMV-2-UCH-L1 (enzyme)
chain: MQLKPMEINPEMLNKVLSRLGVAGQWRFVDVLGLEEESLGSVPAPACALLLLFPLTAQHENFRKKQIEELKGQEVSPKVYFMKQTIGNSCGTIGLIHAVANNQDKLGFEDGSVLKQFLSETEKMSPEDRAKCFEKNEAIQAAHDAVAQEGQCRVDDKVNFHFILFNNVDGHLYELDGRMPFPVNHGASSEDTLLKDAAKVCREFTEREQGEVRFSAVALC
notes: Full-length UCH-L1 with a Flag tag, transiently expressed inside HEK293T (immunoprecipitation) or H358 cells (confocal microscopy); also called PGP9.5; not shown: Flag tag from the pFlag-CMV-2 vector (sigma)
